Source: patent US8378093B2, “Explosives detection markers” (dated 2013)

Experiment: Color change and charge-transfer absorption on complexation of guests with tetra-TTF calix[4]pyrrole 2a
Conditions: in either CH2Cl2 or CHCl3

Row | Compound | color of solution on mixing guest with 2a
1 | O=C1C(F)=C(F)C(=O)C(F)=C1F | brown
2 | O=[N+]([O-])c1cccc([N+](=O)[O-])c1 | green
3 | 2,4,6-trinitrophenole | green
4 | 2,4-dinitrophenole | green
